The assay deals with hCMV. The experiment in a line: Immunostaining for hCMV gB in human dermal fibroblasts. Conditions: 1 mM for 24 hrs prior to viral challenge, MOI 1, mean±SEM, n=5.

Each structure is given as a SMILES string.

For the molecule `CCCC(CCC)C(N)=O` [VPD, 2-propylpentanamide], the “hCMV gB immunoreactive infected cells compared to control” value is on record as 56%±7%.

Values taken from patent publication US20190125701A1 (priority 2016, published 2019).
